Here are results for one compound from patent publication US20220226343A1.

One may read the IC50 as the concentration that gives 50% inhibition. For orientation: AUC means the area under the concentration-time curve, a measure of exposure. Read a high AUC as high exposure.

One data set concerns CDK8/19. The experiment in a line: NFκB reporter assay in parental 293 reporter cells. As to conditions: read-out: NFκB activity Assay IC50; parental 293-derived reporter cell line.
A further data set relates to NFκB activation. The experiment in a line: NFκB reporter assay in CDK8/19 double-knockout 293 reporter cells. As to conditions: CDK8/19 double-knockout reporter cells. (In general: Reporter assays use an easily measured gene product as a stand-in for the process of interest.)
A further data set is described as follows: Mouse PK, oral 1 mg/kg. It counts as in vivo. To be noted: oral (gavage) 1 mg/kg, male FVB mice; 15w in a separate study.
Data set [1] deals with PSA expression in CRPC cell line C4-2. The experiment in a line: PSA expression in cell culture supernatant of C4-2 cells. To be noted: read-out: PSA expression IC50; C4-2 culture supernatant, 4-day treatment, FBS-supplemented regular media.
The test system of data set [2] is alkaline phosphatase (ALPase). As to conditions: concentration that enhances ALPase activity to 200% of control, ST2 cells; cited from earlier work.

Take `CN(C)C(=O)Cc1ccc(N2CCCN(c3ccnc4sc(C(N)=O)c(N)c34)CC2)cc1`: the IC50 in the data set with CDK8/19 is 4 nM. For the same compound, the “effect on NFκB activation in CDK8/19-deficient cells” value in the data set with NFκB activation is given as “no effect”. Moreover, in the data set “Mouse PK, oral 1 mg/kg”, the AUC turned out to be 36.7 ng·h/mL and the t1/2 is 37.2 min. In addition, the IC50 in data set [1] amounted to 15 nM. Moreover, the “ALP activity Assay EC200” value in data set [2] is reported as 6.6 nM.
